Laboratory results taken from ChEMBL document CHEMBL1134160 (Bioorg Med Chem Lett, 2001).

Chains of the proteins cited; added tags and fusions are not shown. Residues count along the entry.
UniProt A5X5Y0, 26-456 limits assumed: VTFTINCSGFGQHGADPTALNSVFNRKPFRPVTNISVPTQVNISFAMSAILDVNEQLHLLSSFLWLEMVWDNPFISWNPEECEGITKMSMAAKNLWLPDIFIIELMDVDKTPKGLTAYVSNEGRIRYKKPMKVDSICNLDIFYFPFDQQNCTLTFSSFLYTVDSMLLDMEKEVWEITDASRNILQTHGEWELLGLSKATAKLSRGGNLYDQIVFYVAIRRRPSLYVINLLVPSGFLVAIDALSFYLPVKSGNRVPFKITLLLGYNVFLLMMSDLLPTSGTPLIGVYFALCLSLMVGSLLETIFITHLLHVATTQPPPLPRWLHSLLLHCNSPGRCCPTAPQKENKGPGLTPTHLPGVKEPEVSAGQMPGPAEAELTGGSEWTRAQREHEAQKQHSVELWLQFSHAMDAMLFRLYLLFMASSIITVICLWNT
UniProt O95264, 22-441 limits assumed: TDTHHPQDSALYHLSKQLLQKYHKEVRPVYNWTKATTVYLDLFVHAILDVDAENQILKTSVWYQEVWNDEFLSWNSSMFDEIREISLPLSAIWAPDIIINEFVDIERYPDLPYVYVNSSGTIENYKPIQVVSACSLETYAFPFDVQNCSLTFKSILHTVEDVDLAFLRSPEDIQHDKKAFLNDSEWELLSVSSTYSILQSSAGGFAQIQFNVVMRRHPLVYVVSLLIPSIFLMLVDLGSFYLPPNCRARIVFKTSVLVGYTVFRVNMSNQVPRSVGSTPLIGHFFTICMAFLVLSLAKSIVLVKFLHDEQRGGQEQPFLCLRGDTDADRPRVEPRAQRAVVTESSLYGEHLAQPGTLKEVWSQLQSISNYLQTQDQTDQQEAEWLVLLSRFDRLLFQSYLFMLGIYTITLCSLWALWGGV
UniProt P46098, 24-478 limits assumed: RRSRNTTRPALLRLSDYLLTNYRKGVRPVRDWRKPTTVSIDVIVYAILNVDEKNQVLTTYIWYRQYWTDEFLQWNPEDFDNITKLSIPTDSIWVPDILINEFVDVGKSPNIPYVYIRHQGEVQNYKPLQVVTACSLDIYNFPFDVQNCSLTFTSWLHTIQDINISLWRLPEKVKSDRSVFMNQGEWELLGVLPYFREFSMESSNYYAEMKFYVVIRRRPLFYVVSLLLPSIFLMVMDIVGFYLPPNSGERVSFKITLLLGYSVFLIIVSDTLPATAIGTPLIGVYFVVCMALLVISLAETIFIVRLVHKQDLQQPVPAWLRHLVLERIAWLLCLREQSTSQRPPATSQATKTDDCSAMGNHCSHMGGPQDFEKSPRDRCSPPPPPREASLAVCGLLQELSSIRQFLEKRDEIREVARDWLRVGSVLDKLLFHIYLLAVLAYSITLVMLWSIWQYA
UniProt Q70Z44, 25-454 limits assumed: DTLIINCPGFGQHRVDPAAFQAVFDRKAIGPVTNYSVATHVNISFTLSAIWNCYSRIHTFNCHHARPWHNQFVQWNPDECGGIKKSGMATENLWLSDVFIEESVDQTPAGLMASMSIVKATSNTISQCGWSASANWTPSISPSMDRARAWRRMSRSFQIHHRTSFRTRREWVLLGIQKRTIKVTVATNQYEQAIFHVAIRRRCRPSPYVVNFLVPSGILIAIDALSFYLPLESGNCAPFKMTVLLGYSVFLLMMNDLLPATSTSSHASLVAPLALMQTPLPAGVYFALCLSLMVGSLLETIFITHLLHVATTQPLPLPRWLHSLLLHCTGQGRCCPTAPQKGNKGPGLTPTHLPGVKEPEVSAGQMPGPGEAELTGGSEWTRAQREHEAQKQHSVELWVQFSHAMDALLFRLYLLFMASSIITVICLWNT
UniProt Q8WXA8, 28-447 limits assumed: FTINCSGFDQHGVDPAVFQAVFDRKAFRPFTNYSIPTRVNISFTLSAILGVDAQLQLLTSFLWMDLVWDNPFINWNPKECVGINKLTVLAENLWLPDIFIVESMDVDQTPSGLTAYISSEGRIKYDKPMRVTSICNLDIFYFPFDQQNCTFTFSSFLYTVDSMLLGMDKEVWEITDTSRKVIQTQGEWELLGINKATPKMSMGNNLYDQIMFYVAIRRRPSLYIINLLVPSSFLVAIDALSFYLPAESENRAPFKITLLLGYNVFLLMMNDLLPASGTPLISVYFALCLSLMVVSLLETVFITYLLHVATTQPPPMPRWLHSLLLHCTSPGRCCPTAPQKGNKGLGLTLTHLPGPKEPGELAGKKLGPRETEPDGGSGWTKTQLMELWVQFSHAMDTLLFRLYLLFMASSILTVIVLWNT

Molecular target: Serotonin 3 (5-HT3) receptor (UniProt A5X5Y0+O95264+P46098+Q70Z44+Q8WXA8)

Compound: O=C(OC1CN2CCC1CC2)c1c[nH]c2ccccc12 (stereo unspecified)
- Ki: 1.1 nM
